# Results: patent publication US9902722B2, “Biaryl kinase inhibitors” (BRISTOL-MYERS SQUIBB COMPANY, priority 2014, dated 2018)
# Protein sequences, listed by entry. Tags and fused reporters are not part of them. Lines headed by an entry give the natural chain unless they say otherwise; changes in a name come on top.
# UniProt Q2M2I8: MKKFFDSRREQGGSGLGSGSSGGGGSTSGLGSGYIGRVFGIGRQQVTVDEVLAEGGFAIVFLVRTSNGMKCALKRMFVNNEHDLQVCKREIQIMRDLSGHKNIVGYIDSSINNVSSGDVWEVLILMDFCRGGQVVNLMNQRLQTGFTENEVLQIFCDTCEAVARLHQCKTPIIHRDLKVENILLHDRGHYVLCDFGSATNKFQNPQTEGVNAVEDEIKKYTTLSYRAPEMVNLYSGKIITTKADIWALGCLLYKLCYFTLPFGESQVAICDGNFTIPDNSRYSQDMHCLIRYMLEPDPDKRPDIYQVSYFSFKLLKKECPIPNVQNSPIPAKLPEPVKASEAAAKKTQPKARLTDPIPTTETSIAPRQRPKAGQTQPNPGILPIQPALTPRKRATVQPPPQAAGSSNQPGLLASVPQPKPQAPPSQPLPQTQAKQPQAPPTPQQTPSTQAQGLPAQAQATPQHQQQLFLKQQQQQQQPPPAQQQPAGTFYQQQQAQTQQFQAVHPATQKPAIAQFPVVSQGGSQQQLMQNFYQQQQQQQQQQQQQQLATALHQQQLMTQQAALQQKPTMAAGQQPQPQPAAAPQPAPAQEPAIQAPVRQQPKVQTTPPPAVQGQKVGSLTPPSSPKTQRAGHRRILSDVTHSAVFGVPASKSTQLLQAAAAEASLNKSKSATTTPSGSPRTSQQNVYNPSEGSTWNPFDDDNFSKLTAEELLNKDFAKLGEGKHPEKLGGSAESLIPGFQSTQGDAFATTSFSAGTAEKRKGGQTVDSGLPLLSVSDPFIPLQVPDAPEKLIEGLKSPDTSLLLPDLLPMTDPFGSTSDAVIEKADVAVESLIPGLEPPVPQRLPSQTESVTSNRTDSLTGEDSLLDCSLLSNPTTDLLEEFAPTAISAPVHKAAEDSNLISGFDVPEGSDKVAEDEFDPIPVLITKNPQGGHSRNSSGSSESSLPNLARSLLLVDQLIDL
# Molecular target: GST-Xa-hAAK1 (Homo sapiens (Human), UniProt Q2M2I8)
# Assay: AAK1 Kinase Assay;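 further: each compound tested across an eleven-point concentration series, with IC50 obtained through non-linear regression fitting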
# Assay type: biochemical
# Settings: bacterially expressed GST-Xa-hAAK1 3.5 nM; ATP 22 μM; peptide substrate 1.5 μM; 3 hours at room temperature; Caliper LabChip 3000
# Protocol: The assays were performed in U-bottom 384-well plates. […] The reactions were initiated by the combination of bacterially expressed, GST-Xa-hAAK1 with substrates and test compounds. The reactions were incubated at room temperature for 3 hours and terminated by adding 60 μl of 35 mM EDTA buffer to each sample. […] Compounds were dissolved at 10 mM in dimethylsulfoxide (DMSO) and evaluated at eleven concentrations. IC50 values were derived by non-linear regression analysis.
row,SMILES,IC50 [nM]
1,"CC(C)C[C@](C)(N)COc1ncc(-c2ccnc3ccccc23)cc1Cl [Example 78, (S)-1-((3-chloro-5-(quinolin-4-yl)pyridin-2-yl)oxy)-2,4-dimethylpentan-2-amine]",0.49
2,"Cc1cc(-c2ccnc3ccc(F)cc23)ncc1OC[C@@](C)(N)CC(C)C [Example 230, (S)-1-((6-(6-fluoroquinolin-4-yl)-4-methylpyridin-3-yl)oxy)-2,4-dimethylpentan-2-amine]",1.1
3,"Cc1cc(-c2ccnc3cc(Cl)ccc23)ncc1OC[C@@](C)(N)CC(C)C [Example 231, (S)-1-((6-(7-chloroquinolin-4-yl)-4-methylpyridin-3-yl)oxy)-2,4-dimethylpentan-2-amine]",0.47
4,"Cc1nccc(-c2cc(Cl)c(OC[C@@](C)(N)CC(C)C)cn2)c1C [Example 243, (S)-1-((4-chloro-2′,3′-dimethyl-[2,4′-bipyridin]-5-yl)oxy)-2,4-dimethylpentan-2-amine]",1070
